Experimental data reported in patent US20040224988A1, “Dosage forms and methods of treatment using VEGFR inhibitors” (Agouron Pharmaceuticals, Inc., priority 2003, published 2004).

What was measured:
MV522 xenograft model = conditions: minimum of 4-hour daily exposure
LLC tumor model = experiment: Lewis Lung carcinoma (LLC) tumor model; type: in vivo, mice; conditions: N=3
U87MG cells = conditions: on matrix protein fibronectin
[1] = combination versus alone

CNC(=O)c1ccccc1Sc1ccc2c(/C=C/c3ccccn3)n[nH]c2c1 [Compound 1, 6-[2-(methylcarbamoyl)phenylsulfanyl]-3-E-[2-(pyridin-2-yl)ethenyl]indazole]
plasma concentration necessary to achieve a 90% tumor growth inhibition (MV522 xenograft model): 40 to 60 ng/mL
biologically active concentration (BAC), plasma concentration for 90% of maximum growth inhibition (LLC tumor model): 55±17 ng/mL
minimal efficacious concentration (MEC), plasma concentration for 50% maximum growth inhibition (LLC tumor model): 28 ± 11 ng/mL
PDGF BB induced cancer cell migration (U87MG cells): inhibiting PDGF BB induced cancer cell migration
AUC of the compound of formula 1 with docetaxel administration [1]: did not affect the AUC
